This note sets out measurements from article PMC11579512, “Deoxybouvardin-glucoside induces apoptosis in non-small cell lung cancer cells by targeting EGFR/MET and AKT signaling pathway” (EXCLI Journal, 2024).

The subject of this assay is HCC827 cells. Kind of assay: Soft agar anchorage-independent growth, HCC827. To be noted: 2 weeks; GEF 1 μM, SAV 2 nM or both. Type of assay: cell-based, human. The protocol: The anchorage-independent cell growth assay was performed in 6-well plates with dual agar layers containing 0.6 % agar (lower layer) and 0.3 % agar (upper layer) supplemented with BME, 2 mM L-glutamine, 5 μg/ml gentamicin, and 10 % FBS. After 2 weeks of incubation, the number of colonies was assessed using a microscope (Leica, Wetzlar, Germany), and the mean colony area was analyzed using i-Solution ^TM software (Vancouver, BC, Canada).

Turning to `C[C@@H](c1ccc2nccn2c1)n1nnc2ncc(-c3cnn(C)c3)nc21` [SAV, savolitinib, reference compound], the “colony number, Control %” value was determined as 110.58%.
